# Measured affinities in a library of Ab-95 light chain variants

Values reported by Engelhart et al. 2022, doi:10.1038/s41597-022-01779-4 (FLAb copy).

The target is the same throughout: PDVDLGDISGINAS, from the HR2 region of SARS-CoV-2 spike.

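The parent was found by panning a naive human phage display library on the peptide. Variants in AAYL52 differ from the parent at up to three CDR positions; double and triple changes were sampled at random. The scFvs were displayed on barcoded MATa yeast, the peptide on MATalpha yeast. After mating in shaken culture at 30 °C for 16 h, diploids were selected and their barcode pairs sequenced. A regression on co-assayed BCL2-family reference pairs converts the normalised counts of each replicate to an apparent Kd. Each pool was mated in three replicate cultures.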

Parent: Ab-95, a human scFv built as VH, three GGGGS repeats, VL. Only the CDRs of the light chain vary.
VH: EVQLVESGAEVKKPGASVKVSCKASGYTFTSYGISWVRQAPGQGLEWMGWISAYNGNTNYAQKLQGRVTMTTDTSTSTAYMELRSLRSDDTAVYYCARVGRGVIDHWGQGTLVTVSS
VL: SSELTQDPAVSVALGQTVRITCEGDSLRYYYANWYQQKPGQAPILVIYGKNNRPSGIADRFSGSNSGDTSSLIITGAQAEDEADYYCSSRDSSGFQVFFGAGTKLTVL

Each variant is given by its three light chain CDRs, as the data file delimits them; those of the parent are EGDSLRYYYAN, GKNNRPS, SSRDSSGFQVF. Scale: log10 of Kd in nM, estimated from mating counts; low values are strong binders. A pair that was not seen in that replicate is written "n.d."; this usually means weak binding, but a binder can also be missed.

CDR-L1	CDR-L2	CDR-L3	log10 Kd, replicates	empty controls
EGDSLRYYYAN	GKNARPS	TSRDSPGFQVF	n.d. 3.74 3.81	2 of 9 (4.19)
EGDFLRYYYAN	GKNNRPS	SSSDSRGFQVF	4.11 3.80 n.d.	2 of 9 (3.66)
WGDSLRPYYAN	GKNNEPS	SSRDSSGFQVF	3.50 n.d. n.d.	0 of 9
EGDSLRYYNAN	GKNNRPS	FSRDSSGFQVF	1.95 1.56 1.27	1 of 9 (3.30)
EGDSLYYYYAS	GKNNRPS	SVRDSSGFQVF	3.89 n.d. n.d.	2 of 9 (3.52)
EGCSLRYYYIT	GKNNRPS	SSRDSSGFQVF	n.d. n.d. n.d.	1 of 9 (3.89)
EGDSLRPYYAN	GKENRPS	SSRDSSGFQVF	3.56 4.08 4.33	1 of 9 (2.33)
EGDSLRYYYAN	GKNNRPT	KSRDSSGFHVF	3.66 3.94 n.d.	3 of 9 (3.54)
EGDSLRYIYAN	GKNNRPS	SSRDSSGFQVF	2.79 2.53 2.26	6 of 9 (4.29)
EGDSLRYYYAN	HKNKRPS	SSRDSSGGQVF	3.96 n.d. n.d.	1 of 9 (3.38)
EGDSLRSYYEN	GKNNRDS	SSRDSSGFQVF	3.35 n.d. n.d.	1 of 9 (3.13)
EGDSLRYYYAN	GKNNRPS	SSRDSSGFQVA	2.20 2.19 1.98	5 of 9 (3.96)
EGDSLRYYYAT	GKNNRPS	ASRFSSGFQVF	3.26 n.d. n.d.	4 of 9 (3.28)
ENDTLRYYYAN	GKNNRCS	SSRDSSGFQVF	4.36 n.d. 4.53	3 of 9 (4.00)
EGDSLRYYYDN	GKNNRPS	SSRDSSGFYEF	3.42 n.d. n.d.	0 of 9
EGDSLRYYNAN	GKNNRPS	YSRDSSGFIVF	4.64 2.60 n.d.	2 of 9 (3.31)
EGPSLRYEYAN	GKNNRPS	SSNDSSGFQVF	2.04 1.68 1.68	4 of 9 (4.52)
EGDSLRTYYAN	GKNNRPS	SSRDSYGGQVF	n.d. n.d. 3.27	2 of 9 (5.13)
EGDSLNYYIAN	GKNNRPS	SSRDSSAFQVF	3.75 n.d. 3.91	0 of 9
EGDSLRYDYAN	GKNNRPS	SKRDSSTFQVF	n.d. n.d. n.d.	0 of 9
EGDSLRYYYAN	GKNNRPS	SSHDSFGFQVC	2.98 2.78 n.d.	4 of 9 (3.51)
EGDSLRYYYIN	GKNNTPS	SSRDSSDFQVF	4.30 n.d. n.d.	2 of 9 (3.43)
EGDSLRYYYAN	GKQNRGS	SSRDSSGFQPF	2.95 2.43 3.56	5 of 9 (3.75)
EGDSLRYKYLN	GKNNRPS	SSRDSSGFYVF	3.27 3.49 3.12	4 of 9 (3.74)
EGDSLRYYYAN	GKNNRPS	SERDSSKFEVF	3.61 4.46 n.d.	2 of 9 (4.30)
EGMSLRYYYAN	GKNNRPS	QSRDSSGFQFF	4.30 3.40 n.d.	3 of 9 (4.29)
EGDSLRYYYAN	GLNWRPS	SSRDSSGFQMF	n.d. 2.85 n.d.	4 of 9 (3.41)
EGDSLRYYYAN	GKNTRPS	PSRDSSGFEVF	2.04 2.56 1.96	3 of 9 (3.59)
EGDSLRELPAN	GKNNRPS	SSRDSSGFQVF	1.92 2.25 2.07	7 of 9 (3.75)
EIDSLRYYYAN	GKNARPS	SSRDSSGFQVP	2.31 2.21 1.40	5 of 9 (3.73)
EGDSLRYYYAN	GKNERPS	SSRDSSGFSVF	2.19 2.13 2.03	2 of 9 (3.57)
EGDSLRYYYAN	GKNTRPS	SSNDSSWFQVF	n.d. 2.45 3.48	0 of 9
EYDSLRYYYAN	GKNNRPS	SSRDASLFQVF	n.d. n.d. n.d.	2 of 9 (3.61)

The closing 5 entries, repeated:

CDR-L1,CDR-L2,CDR-L3,"log10 Kd, replicates",empty controls
EGDSLRELPAN,GKNNRPS,SSRDSSGFQVF,1.92 2.25 2.07,7 of 9 (3.75)
EIDSLRYYYAN,GKNARPS,SSRDSSGFQVP,2.31 2.21 1.40,5 of 9 (3.73)
EGDSLRYYYAN,GKNERPS,SSRDSSGFSVF,2.19 2.13 2.03,2 of 9 (3.57)
EGDSLRYYYAN,GKNTRPS,SSNDSSWFQVF,n.d. 2.45 3.48,0 of 9
EYDSLRYYYAN,GKNNRPS,SSRDASLFQVF,n.d. n.d. n.d.,2 of 9 (3.61)

Background: pairings of library AAYL52 with three empty control strains gave a value in 28% of cases (median 3.91, 5th percentile 2.90). Values in that range, when seen in few replicates, are hard to tell from nonspecific mating. For each scFv, signals with the empty controls are counted beside the result, with their mean in brackets. In this assay the parent's reference entry averaged 2.31; its copy inside this library read 2.25.